For assay [1], the system named is B16 murine melanoma cells. Kind of assay: B16 melanoma cell growth inhibition assay (MTS). The assay is classed as cell-based.
Assay [2] has as its target HDAC5 (Homo sapiens (Human), UniProt Q9UQL6). Conditions: read-out: IC50 HDAC5; Table 3 isoform profile.
The target in assay [3] is HDAC9 (Homo sapiens (Human), UniProt Q9UKV0). Conditions: read-out: IC50 HDAC9; Table 3 isoform profile.
The target of assay [4] is HDAC10 (Homo sapiens (Human), UniProt Q969S8). Conditions: read-out: IC50 HDAC10; Table 3 isoform profile.

The chains behind the UniProt entries cited, without tags or fusion partners. Where a name states a change or a piece, a line headed by the entry shows the natural chain unless it says otherwise.
UniProt Q9UQL6: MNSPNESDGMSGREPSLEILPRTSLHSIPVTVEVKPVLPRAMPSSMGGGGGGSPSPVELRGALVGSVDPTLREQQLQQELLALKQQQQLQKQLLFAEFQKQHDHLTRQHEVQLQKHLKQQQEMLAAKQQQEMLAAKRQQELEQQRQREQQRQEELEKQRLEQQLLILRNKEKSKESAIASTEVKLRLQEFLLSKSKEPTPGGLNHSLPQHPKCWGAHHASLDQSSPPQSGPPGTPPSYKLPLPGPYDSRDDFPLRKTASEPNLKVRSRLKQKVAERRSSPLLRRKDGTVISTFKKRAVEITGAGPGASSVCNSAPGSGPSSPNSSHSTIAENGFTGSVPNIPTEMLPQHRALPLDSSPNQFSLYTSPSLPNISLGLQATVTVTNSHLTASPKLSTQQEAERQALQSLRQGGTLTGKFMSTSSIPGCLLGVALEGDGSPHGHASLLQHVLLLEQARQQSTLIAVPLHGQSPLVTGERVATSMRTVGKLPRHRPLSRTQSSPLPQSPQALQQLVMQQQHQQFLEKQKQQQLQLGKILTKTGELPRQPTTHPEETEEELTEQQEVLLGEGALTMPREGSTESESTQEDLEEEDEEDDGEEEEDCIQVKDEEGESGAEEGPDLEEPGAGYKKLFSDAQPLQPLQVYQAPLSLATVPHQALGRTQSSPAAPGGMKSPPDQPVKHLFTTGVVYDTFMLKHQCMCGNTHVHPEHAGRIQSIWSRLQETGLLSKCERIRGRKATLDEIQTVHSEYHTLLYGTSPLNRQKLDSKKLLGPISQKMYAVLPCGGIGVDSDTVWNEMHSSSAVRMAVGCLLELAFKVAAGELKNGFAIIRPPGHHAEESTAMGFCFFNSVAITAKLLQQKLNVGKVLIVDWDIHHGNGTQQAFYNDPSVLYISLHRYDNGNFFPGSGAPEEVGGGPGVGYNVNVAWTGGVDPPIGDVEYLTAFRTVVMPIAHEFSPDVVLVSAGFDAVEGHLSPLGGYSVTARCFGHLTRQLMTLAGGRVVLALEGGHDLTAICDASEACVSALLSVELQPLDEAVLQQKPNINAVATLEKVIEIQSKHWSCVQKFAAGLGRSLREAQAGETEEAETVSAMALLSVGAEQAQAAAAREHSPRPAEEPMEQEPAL
UniProt Q9UKV0: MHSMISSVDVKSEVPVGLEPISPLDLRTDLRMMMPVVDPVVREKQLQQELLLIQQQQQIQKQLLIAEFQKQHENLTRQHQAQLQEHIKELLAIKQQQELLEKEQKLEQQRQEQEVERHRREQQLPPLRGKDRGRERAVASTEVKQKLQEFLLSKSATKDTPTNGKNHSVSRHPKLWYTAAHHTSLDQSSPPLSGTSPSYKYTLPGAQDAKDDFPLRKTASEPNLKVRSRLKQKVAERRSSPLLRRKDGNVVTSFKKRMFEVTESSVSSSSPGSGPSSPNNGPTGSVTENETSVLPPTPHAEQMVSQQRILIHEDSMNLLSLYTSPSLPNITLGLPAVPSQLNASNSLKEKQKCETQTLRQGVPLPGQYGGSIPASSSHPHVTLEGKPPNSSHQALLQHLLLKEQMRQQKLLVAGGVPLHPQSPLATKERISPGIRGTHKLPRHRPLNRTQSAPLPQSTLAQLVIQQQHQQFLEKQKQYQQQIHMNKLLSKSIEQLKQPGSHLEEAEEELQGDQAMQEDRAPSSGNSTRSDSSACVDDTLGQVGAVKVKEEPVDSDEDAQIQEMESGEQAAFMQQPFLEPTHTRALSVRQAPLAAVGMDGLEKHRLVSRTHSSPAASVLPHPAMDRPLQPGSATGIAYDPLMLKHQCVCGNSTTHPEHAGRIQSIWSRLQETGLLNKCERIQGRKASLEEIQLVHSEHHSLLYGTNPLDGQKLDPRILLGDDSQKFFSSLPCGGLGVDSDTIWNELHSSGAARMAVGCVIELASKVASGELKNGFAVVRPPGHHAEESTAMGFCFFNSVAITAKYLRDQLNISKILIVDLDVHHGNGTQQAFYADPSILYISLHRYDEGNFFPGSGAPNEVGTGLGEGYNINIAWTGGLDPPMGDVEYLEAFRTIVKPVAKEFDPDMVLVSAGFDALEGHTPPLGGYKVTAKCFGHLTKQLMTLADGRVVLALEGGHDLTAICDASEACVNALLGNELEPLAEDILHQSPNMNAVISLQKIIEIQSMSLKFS
UniProt Q969S8: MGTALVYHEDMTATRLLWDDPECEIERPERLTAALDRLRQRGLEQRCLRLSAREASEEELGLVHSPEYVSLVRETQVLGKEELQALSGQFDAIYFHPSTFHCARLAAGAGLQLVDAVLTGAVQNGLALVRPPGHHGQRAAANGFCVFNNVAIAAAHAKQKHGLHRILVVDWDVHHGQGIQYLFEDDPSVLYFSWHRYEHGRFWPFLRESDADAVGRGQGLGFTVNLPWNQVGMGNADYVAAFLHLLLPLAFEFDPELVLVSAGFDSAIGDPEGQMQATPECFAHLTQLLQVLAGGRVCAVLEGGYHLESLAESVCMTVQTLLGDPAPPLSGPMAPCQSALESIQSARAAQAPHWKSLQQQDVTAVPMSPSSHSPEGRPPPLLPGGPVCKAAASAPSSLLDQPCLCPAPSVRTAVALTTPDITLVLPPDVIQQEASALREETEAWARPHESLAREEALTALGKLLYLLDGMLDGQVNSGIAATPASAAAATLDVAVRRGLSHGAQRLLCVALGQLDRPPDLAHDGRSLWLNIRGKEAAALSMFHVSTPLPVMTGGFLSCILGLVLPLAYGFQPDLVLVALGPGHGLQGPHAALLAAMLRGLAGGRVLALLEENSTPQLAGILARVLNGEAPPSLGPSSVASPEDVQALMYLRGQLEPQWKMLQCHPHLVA

The text below walks through data of patent US9409858B2, “Selective histone deactylase 6 inhibitors” (H. LEE MOFFITT CANCER CENTER AND RESEARCH INSTITUTE, INC., priority 2012, dated 2016).

A word on the IC50: it is the concentration that gives 50% inhibition. Consider `CCCCN(Cc1ccc(C(=O)NO)cc1)C(=O)Nc1ccccc1` [Compound 5g, 4-((1-butyl-3-phenylureido)methyl)-N-hydroxybenzamide], for which the “growth inhibition of B16 melanoma cells (in words)” value in assay [1] was “capable of inhibiting the growth of B16 melanoma cell line”. The IC50 is 11.7 ± 0.141 µM in assay [2], 6.72 ± 1.15 µM in assay [3] and 7.57 ± 0.481 µM in assay [4].
